Laboratory results: PubChem BioAssay (EPA / NIEHS)
The list shows a part of the results, in another mix than the full data. Activity calls are given as the source filed them. How the source made its calls: active means hit-call score of the fitted dose curve at least 0.9, where 1 is the maximum; inactive means score below 0.9.

Chains of the proteins cited; added tags and fusions are not shown. Lines headed by an entry give the natural chain unless they say otherwise; changes in a name come on top.
UniProt Q16236, whole entry, looked up: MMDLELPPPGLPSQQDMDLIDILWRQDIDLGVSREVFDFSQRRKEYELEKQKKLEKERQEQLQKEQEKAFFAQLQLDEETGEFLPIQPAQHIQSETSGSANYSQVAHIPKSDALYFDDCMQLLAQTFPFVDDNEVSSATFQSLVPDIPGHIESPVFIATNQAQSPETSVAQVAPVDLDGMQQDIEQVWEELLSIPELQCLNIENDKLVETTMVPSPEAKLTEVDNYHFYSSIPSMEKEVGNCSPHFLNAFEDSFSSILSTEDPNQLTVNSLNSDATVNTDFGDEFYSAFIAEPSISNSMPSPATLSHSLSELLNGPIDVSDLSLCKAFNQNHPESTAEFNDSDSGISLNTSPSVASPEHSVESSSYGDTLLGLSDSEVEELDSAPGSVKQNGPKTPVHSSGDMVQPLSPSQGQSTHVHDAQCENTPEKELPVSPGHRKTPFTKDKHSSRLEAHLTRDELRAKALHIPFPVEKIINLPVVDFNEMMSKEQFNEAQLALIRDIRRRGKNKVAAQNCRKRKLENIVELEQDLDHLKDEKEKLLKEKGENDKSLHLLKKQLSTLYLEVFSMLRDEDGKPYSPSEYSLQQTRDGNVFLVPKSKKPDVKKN
UniProt P40763, whole entry, looked up: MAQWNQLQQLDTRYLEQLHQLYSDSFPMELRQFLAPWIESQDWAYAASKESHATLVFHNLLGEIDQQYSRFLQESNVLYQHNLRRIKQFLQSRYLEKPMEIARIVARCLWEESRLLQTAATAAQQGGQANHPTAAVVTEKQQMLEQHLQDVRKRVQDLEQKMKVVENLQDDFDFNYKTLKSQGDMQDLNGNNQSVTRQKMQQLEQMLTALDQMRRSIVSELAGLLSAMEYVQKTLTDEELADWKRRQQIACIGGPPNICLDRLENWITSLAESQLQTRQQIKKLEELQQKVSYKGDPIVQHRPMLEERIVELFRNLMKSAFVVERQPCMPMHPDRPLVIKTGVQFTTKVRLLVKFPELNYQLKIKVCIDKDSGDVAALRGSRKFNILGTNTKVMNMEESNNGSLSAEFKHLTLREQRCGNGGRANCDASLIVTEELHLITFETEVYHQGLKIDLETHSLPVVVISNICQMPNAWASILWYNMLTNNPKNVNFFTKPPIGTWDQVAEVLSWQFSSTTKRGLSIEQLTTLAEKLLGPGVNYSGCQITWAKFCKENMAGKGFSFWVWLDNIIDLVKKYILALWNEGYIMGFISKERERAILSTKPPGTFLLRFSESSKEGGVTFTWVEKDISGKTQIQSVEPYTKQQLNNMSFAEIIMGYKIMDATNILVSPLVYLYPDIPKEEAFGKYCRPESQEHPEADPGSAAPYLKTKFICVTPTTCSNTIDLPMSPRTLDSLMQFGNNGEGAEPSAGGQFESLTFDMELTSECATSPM
UniProt P19838: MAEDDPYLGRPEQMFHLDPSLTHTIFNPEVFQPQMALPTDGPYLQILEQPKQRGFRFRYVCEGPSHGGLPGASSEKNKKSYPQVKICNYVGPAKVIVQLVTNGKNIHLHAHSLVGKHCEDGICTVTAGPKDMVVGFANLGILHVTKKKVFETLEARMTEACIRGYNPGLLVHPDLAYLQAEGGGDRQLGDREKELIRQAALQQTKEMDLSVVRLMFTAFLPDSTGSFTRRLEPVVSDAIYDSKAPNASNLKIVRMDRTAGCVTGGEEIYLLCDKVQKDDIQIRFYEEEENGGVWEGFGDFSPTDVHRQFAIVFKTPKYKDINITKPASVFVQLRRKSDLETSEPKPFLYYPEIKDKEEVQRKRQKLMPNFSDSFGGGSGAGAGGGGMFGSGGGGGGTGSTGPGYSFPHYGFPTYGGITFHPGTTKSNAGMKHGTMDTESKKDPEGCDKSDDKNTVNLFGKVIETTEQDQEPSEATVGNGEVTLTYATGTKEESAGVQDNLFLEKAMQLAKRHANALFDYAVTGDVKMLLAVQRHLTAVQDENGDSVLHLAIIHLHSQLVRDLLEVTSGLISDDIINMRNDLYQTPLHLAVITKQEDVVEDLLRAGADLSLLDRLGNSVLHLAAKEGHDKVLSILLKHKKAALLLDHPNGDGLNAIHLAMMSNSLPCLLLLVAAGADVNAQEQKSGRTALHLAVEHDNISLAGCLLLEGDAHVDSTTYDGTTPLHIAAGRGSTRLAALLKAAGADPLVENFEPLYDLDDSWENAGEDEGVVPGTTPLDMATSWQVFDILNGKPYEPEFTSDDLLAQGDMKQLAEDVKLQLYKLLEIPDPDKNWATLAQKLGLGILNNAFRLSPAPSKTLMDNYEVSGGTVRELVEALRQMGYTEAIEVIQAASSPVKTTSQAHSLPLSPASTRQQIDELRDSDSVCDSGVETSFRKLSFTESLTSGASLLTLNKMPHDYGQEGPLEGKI
UniProt P04637, whole entry, looked up: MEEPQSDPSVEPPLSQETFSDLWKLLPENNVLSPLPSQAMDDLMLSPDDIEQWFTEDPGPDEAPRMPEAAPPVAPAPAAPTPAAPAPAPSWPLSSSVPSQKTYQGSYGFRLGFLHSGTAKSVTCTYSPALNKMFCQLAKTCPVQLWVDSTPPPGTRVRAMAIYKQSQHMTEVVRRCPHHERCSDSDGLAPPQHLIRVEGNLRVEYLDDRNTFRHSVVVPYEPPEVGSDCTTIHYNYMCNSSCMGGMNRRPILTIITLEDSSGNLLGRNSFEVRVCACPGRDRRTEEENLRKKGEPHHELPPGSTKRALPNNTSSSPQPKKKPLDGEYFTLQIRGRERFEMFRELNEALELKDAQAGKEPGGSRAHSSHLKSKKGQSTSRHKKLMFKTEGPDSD

Columns and labels:
Settings in all cases: actives raise or lower the signal; mRNA level, 48 h
[1] = read-out: Paternally Expressed 10 (PEG10), PEG10 (gene 23089); assay: LTEA_HepaRG_PEG10: Life Technologies and Expression Analysis (LTEA) Assay for Paternally Expressed 10 (PEG10) using HepaRG (AID 2283520);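 on AC50: PEG10 transcript by qRT-PCR normalised to ACTB GAPDH and POLR2A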
Method in brief: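 After 48 h exposure of differentiated HepaRG cells (0.5% DMSO vehicle, eight concentrations up to 100 uM, duplicates), PEG10 mRNA was measured by TaqMan qRT-PCR. Values were normalised to endogenous control genes and analysed bidirectionally against vehicle.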

[2] = read-out: Protein phosphatase 2A (PPP2R4), PTPA (gene 5524); assay: LTEA_HepaRG_PPP2R4: Life Technologies and Expression Analysis (LTEA) Assay for Protein phosphatase 2A (PPP2R4) using HepaRG (AID 2283522)
Method in brief: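 Using HepaRG cultures maintained in 0.5% DMSO, chemicals are tested 48 h at up to 100 uM in duplicate. Induction or suppression of PPP2R4 mRNA, measured by qRT-PCR, is fitted bidirectionally against the vehicle baseline.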

[3] = read-out: Phosphatase and tensin (PTEN), PTEN (gene 5728); assay: LTEA_HepaRG_PTEN: Life Technologies and Expression Analysis (LTEA) Assay for Phosphatase and tensin (PTEN) using HepaRG (AID 2283523)
Method in brief: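 HepaRG, 48 h exposure, 8-pt half-log series from 100 uM top, 0.5% DMSO vehicle, duplicates. Readout: Fluidigm qRT-PCR of PTEN transcript; housekeeping normalization (ACTB, GAPDH, POLR2A). Gain or loss fitted relative to DMSO baseline.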

[4] = read-out: solute carrier (SLC22A1), SLC22A1 (gene 6580); assay: LTEA_HepaRG_SLC22A1: Life Technologies and Expression Analysis (LTEA) Assay for solute carrier (SLC22A1) using HepaRG (AID 2283524)
Method in brief: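 qRT-PCR readout (TaqMan, Fluidigm arrays) of SLC22A1 transcript, normalized to three housekeeping genes; bidirectional curve fit relative to 0.5% DMSO vehicle. Differentiated human HepaRG cells, 48 h chemical exposure, top concentration 100 uM, half-log steps, eight points.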

[5] = read-out: Pyruvate Dehydrogenase Kinase 4 (PDK4), PDK4 (gene 5166); assay: LTEA_HepaRG_PDK4: Life Technologies and Expression Analysis (LTEA) Assay for Pyruvate Dehydrogenase Kinase 4 (PDK4) using HepaRG (AID 2283525)
Method in brief: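 HepaRG (human liver line), 48 h chemical exposure, 8-pt half-log CRC top 100 uM, 0.5% DMSO vehicle, duplicates. Readout: TaqMan qRT-PCR of PDK4 mRNA, housekeeping-normalized; gain/loss fit relative to DMSO baseline.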

[6] = read-out: NAD(P)H dehydrogenase [quinone] 1 (NQO1), NQO1 (gene 1728); assay: LTEA_HepaRG_NQO1: Life Technologies and Expression Analysis (LTEA) Assay for NAD(P)H dehydrogenase [quinone] 1 (NQO1) using HepaRG (AID 2283526)
Method in brief: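 In this assay, gene expression is read by qRT-PCR after 48 h exposure of HepaRG cells to eight concentrations (max 100 uM, half-log) in 0.5% DMSO. Each chemical runs in duplicate, and activity is scored relative to vehicle.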

[7] = read-out: Nuclear factor erythroid 2-related factor 2 (Homo sapiens) (UniProt Q16236); assay: LTEA_HepaRG_NFE2L2: Life Technologies and Expression Analysis (LTEA) Assay for Nuclear factor erythroid 2-related factor 2 (NFE2L2) Transcription Factor using HepaRG (AID 2283527);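 on outcome: TaqMan qRT-PCR transcript level normalised to ACTB GAPDH and POLR2A housekeeping genes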
Method in brief: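 HepaRG, 48 h dosing, 8-pt half-log series from 100 uM in 0.5% DMSO, duplicates. Read-out: NFE2L2 mRNA by qRT-PCR (ACTB/GAPDH/POLR2A normalization). Bidirectional curve fit vs DMSO baseline.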

[8] = read-out: succinate dehydrogenase complex iron sulfur subunit B (SDHB), SDHB (gene 6390); assay: LTEA_HepaRG_SDHB: Life Technologies and Expression Analysis (LTEA) Assay for succinate dehydrogenase complex iron sulfur subunit B (SDHB) using HepaRG (AID 2283528)
Method in brief: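 HepaRG, 48 h exposure, 8-pt half-log series from 100 uM in 0.5% DMSO, duplicates. Readout: SDHB mRNA by Fluidigm qRT-PCR vs housekeeping genes; bidirectional fit relative to DMSO.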

[9] = read-out: Signal transducer and activator of transcription 3 (Homo sapiens) (UniProt P40763); assay: LTEA_HepaRG_STAT3: Life Technologies and Expression Analysis (LTEA) Assay for Signal transducer and activator of transcription (STAT3) using HepaRG (AID 2283529)
Method in brief: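 HepaRG, 48 h exposure, 8-pt half-log series (top 100 uM), 0.5% DMSO vehicle, duplicates. Readout: STAT3 transcript by Fluidigm qRT-PCR, housekeeping-normalized; bidirectional fit vs DMSO baseline.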

[10] = read-out: solute carrier (SLCO1B1), SLCO1B1 (gene 10599); assay: LTEA_HepaRG_SLCO1B1: Life Technologies and Expression Analysis (LTEA) Assay for solute carrier (SLCO1B1) using HepaRG (AID 2283530)
Method in brief: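 Differentiated human HepaRG cells were exposed for 48 h in serum-free induction medium to eight half-log concentrations, top 100 uM, in 0.5% DMSO. SLCO1B1 mRNA was measured by qRT-PCR, normalized to ACTB, GAPDH and POLR2A, and fitted bidirectionally against DMSO.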

[11] = read-out: sulfotransferase 2A1 (SULT2A1), SULT2A1 (gene 6822); assay: LTEA_HepaRG_SULT2A1: Life Technologies and Expression Analysis (LTEA) Assay for sulfotransferase 2A1 (SULT2A1) using HepaRG (AID 2283531)
Method in brief: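 HepaRG human liver cells, 48 h exposure in serum-free induction medium to 8 half-log concentrations topping at 100 µM (0.5% DMSO), duplicate wells. SULT2A1 mRNA measured by TaqMan qRT-PCR, normalized to ACTB/GAPDH/POLR2A; bidirectional fit against DMSO.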

[12] = read-out: Transforming Growth Factor (TGFA), TGFA (gene 7039); assay: LTEA_HepaRG_TGFA: Life Technologies and Expression Analysis (LTEA) Assay for Transforming Growth Factor (TGFA) using HepaRG (AID 2283532)
Method in brief: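 qRT-PCR read-out of TGFA transcript, normalized to three housekeeping genes, fitted bidirectionally against 0.5% DMSO baseline. Human HepaRG cultures received chemicals for 48 h at eight half-log concentrations, top 100 uM.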

[13] = read-out: Transforming Growth Factor (TGFB1), TGFB1 (gene 7040); assay: LTEA_HepaRG_TGFB1: Life Technologies and Expression Analysis (LTEA) Assay for Transforming Growth Factor (TGFB1) Transporter using HepaRG (AID 2283533)
Method in brief: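 Differentiated HepaRG cells exposed 48 hr in serum-free induction medium to eight half-log concentrations up to 100 uM (0.5% DMSO), duplicate; TGFB1 mRNA by TaqMan qRT-PCR normalised to ACTB, GAPDH, POLR2A; bidirectional fit against DMSO.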

[14] = read-out: TIMP1, TIMP1 (gene 7076); assay: LTEA_HepaRG_TIMP1: Life Technologies and Expression Analysis (LTEA) Assay for TIMP1 using HepaRG (AID 2283534)
Method in brief: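 Differentiated HepaRG cells exposed 48 h in serum-free induction medium, duplicates, eight half-log concentrations from 100 uM in 0.5% DMSO. TIMP1 mRNA by qRT-PCR normalized to ACTB, GAPDH, POLR2A; bidirectional fitting against DMSO.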

[15] = read-out: Thyroid Hormone Responsive (THRSP), THRSP (gene 7069); assay: LTEA_HepaRG_THRSP: Life Technologies and Expression Analysis (LTEA) Assay for Thyroid Hormone Responsive (THRSP) using HepaRG (AID 2283536)
Method in brief: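 qRT-PCR read-out (Fluidigm TaqMan), housekeeping-normalized (ACTB/GAPDH/POLR2A). HepaRG, 48 h chemical exposure, 8-pt half-log series from 100 uM in 0.5% DMSO, duplicates. Bidirectional curve fit vs 0.5% DMSO baseline.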

[16] = read-out: UDP glucuronosyltransferase (UGT1A1), UGT1A1 (gene 54658); assay: LTEA_HepaRG_UGT1A1: Life Technologies and Expression Analysis (LTEA) Assay for UDP glucuronosyltransferase (UGT1A1) using HepaRG (AID 2283538)
Method in brief: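 mRNA induction or loss of UGT1A1, by TaqMan qRT-PCR, in duplicate HepaRG wells after 48 h exposure to half-log dilutions topping at 100 uM; DMSO (0.5%) served as baseline.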

[17] = read-out: UDP glucuronosyltransferase (UGT1A6), UGT1A6 (gene 54578); assay: LTEA_HepaRG_UGT1A6: Life Technologies and Expression Analysis (LTEA) Assay for UDP glucuronosyltransferase (UGT1A6) using HepaRG (AID 2283539)
Method in brief: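 Differentiated HepaRG cells, ~100,000/well, were exposed for 48 h in serum-free induction medium with 0.5% DMSO to 8-point half-log series topping at 100 uM, in duplicate. mRNA measured by Fluidigm TaqMan qRT-PCR, normalized to ACTB, GAPDH and POLR2A.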

[18] = read-out: Nuclear factor NF-kappa-B p105 subunit (Homo sapiens) (UniProt P19838); assay: LTEA_HepaRG_NFKB1: Life Technologies and Expression Analysis (LTEA) Assay for Nuclear Factor Kappa B Subunit 1 (NFKB1) using HepaRG (AID 2283521);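 further: TaqMan qRT-PCR transcript normalised to ACTB GAPDH and POLR2A housekeeping genes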
Method in brief: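 Differentiated human HepaRG cells were exposed for 48 h in serum-free induction medium to eight concentrations (top 100 uM, half-log steps, 0.5% DMSO), in duplicate. NFKB1 mRNA was measured by TaqMan qRT-PCR, normalized to ACTB/GAPDH/POLR2A, and fitted bidirectionally against DMSO.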

[19] = read-out: Tumor necrosis factor receptor 1 (TNFRSF1A), TNFRSF1A (gene 7132); assay: LTEA_HepaRG_TNFRSF1A: Life Technologies and Expression Analysis (LTEA) Assay for Tumor necrosis factor receptor 1 (TNFRSF1A) using HepaRG (AID 2283535)
Method in brief: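 Differentiated HepaRG cells in serum-free induction medium, exposed 48 h in duplicate to 8 half-log concentrations up to 100 uM in 0.5% DMSO. TNFRSF1A mRNA by Fluidigm TaqMan qRT-PCR, normalized to ACTB, GAPDH, POLR2A; bidirectional fit.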

[20] = read-out: Cellular tumor antigen p53 (Homo sapiens) (UniProt P04637); assay: LTEA_HepaRG_TP53: Life Technologies and Expression Analysis (LTEA) Assay for Tumor Protein P53 (TP53) using HepaRG (AID 2283537)
Method in brief: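 HepaRG, 48 h exposure, top 100 uM, half-log 8-point, 0.5% DMSO vehicle, duplicates. Read: TP53 mRNA by TaqMan qRT-PCR, normalised to ACTB/GAPDH/POLR2A; bidirectional fit vs DMSO.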

## CC(C)OP(=S)(OC(C)C)SCCNS(=O)(=O)c1ccccc1
[1]
  AC50: active: 66.5 µM
[2]
  AC50: active: 81.2 µM
[3]
  AC50: active: 90.4 µM
[4]
  AC50: active: 4.18 µM
[5]
  AC50: active: 89.4 µM
[6]
  outcome: inactive
[7]
  AC50: active: 62.1 µM
[8]
  AC50: active: 85.7 µM
[9]
  AC50: active: 15.9 µM
[10]
  AC50: active: 92.9 µM
[11]
  AC50: active: 79.2 µM
[12]
  outcome: inactive
[13]
  AC50: active: 90.9 µM
[14]
  outcome: inactive
[15]
  AC50: active: 25.3 µM
[16]
  AC50: active: 83.7 µM
[17]
  AC50: active: 83 µM

## CN(C(=O)Cc1cccc2occc12)[C@H]1CC[C@@]2(CCCO2)C[C@@H]1N1CCCC1
[1]
  outcome: inactive
[18]
  outcome: inactive
[2]
  outcome: inactive
[3]
  outcome: inactive
[4]
  outcome: inactive
[5]
  outcome: inactive
[6]
  outcome: inactive
[7]
  outcome: inactive
[8]
  outcome: inactive
[9]
  outcome: inactive
[10]
  outcome: inactive
[11]
  outcome: inactive
[12]
  outcome: inactive
[13]
  outcome: inactive
[14]
  outcome: inactive
[19]
  outcome: inactive
[15]
  AC50: active: 50 µM
[20]
  outcome: inactive
[16]
  AC50: active: 22.5 µM
[17]
  outcome: inactive
